The labels stand for the following.
B1: N^5-CAIR synthetase (Aspergillus clavatus NRRL 1) (protein)
chain: MWNSRKVGVLGGGQLGRMLVESANRLNIQVNVLDADNSPAKQISAHDGHVTGSFKEREAVRQLAKTCDVVTAEIEHVDTYALEEVASEVKIEPSWQAIRTIQNKFNQKEHLRKYGIPMAEHRELVENTPAELAKVGEQLGYPLMLKSKTMAYDGRGNFRVNSQDDIPEALEALKDRPLYAEKWAYFKMELAVIVVKTKDEVLSYPTVETVQEDSICKLVYAPARNVSDAINQKAQELARKAVAAFDGKGVFGVEMFLLEDDSIMLCEIASRIHNSGHYTIEGCALSQFDAHLRAILDLPIPAQSLEIRQPSIMLNIIGGAAPDTHLQAAECALSIPNASIHLYSKGAAKPGRKMGHITVTAPTMHEAETHIQPLIDVVDRIRA

The values below come from PMC3820426.

In one data set the test system is Nc1cncn1[C@@H]1O[C@H](COP(=O)(O)O)[C@@H](O)[C@H]1O. Nature of the data set: purified protein. The following applies: full reaction, 1 mM ATP, 1 mM NaHCO3, 50 mM Hepes pH 7.8, 37 °C.
As for “N^5-CAIR synthetase (Aspergillus clavatus NRRL 1; H273Q)”, the Michaelis constant (Km) came to 28 ± 4 µM, the catalytic constant (kcat) was determined as 0.19 ± 0.007 min⁻¹ and the specificity constant (kcat/Km) worked out at 117 M⁻¹ s⁻¹.
Turning to “N^5-CAIR synthetase (Aspergillus clavatus NRRL 1; Y152F)”, the Km turned out to be 68 ± 6 µM, the turnover number (kcat) is 1,600 ± 45 min^-1 and the kcat/Km was found to be 400000 M⁻¹ s⁻¹.
Taken in the same sequence, the figures for “N^5-CAIR synthetase (Aspergillus clavatus NRRL 1; R271A)” were 254 ± 53 µM, 0.11 ± 0.007 min⁻¹ and 8.33 M⁻¹ s⁻¹.
Regarding “N^5-CAIR synthetase (Aspergillus clavatus NRRL 1; R271Q)”, the Km was determined as 87 ± 19 µM, the catalytic constant (kcat) turned out to be 0.4 ± 0.03 min⁻¹ and the kcat/Km was found to be 66.7 M⁻¹ s⁻¹.
Taken in the same sequence, the figures for “N^5-CAIR synthetase (Aspergillus clavatus NRRL 1; R271K)” were 608 ± 83 µM, 50 ± 2 min⁻¹ and 1270 M⁻¹ s⁻¹.

Substrate in the next data set: Nc1cncn1[C@@H]1O[C@H](COP(=O)(O)O)[C@@H](O)[C@H]1O
Nature of the data set: purified protein. The following applies: full reaction, 1 mM ATP, 1 mM NaHCO3, 50 mM Hepes pH 7.8, 37 °C. This is another data set of the same source.
Take B1: the Km is 22 ± 4 µM.
